# scFv variants of Ab-91 (heavy chain) against a SARS-CoV-2 spike peptide

The measurements come from Engelhart et al. 2022 (doi:10.1038/s41597-022-01779-4) through the FLAb antibody collection.

Binding partner: SARS-CoV-2 spike HR2 peptide, sequence PDVDLGDISGINAS.

Each scFv is VL, the linker GGGGSGGGGSGGGGS, VH, as in the parent Ab-91, and differs from it in the CDRs of the heavy chain only.
VL: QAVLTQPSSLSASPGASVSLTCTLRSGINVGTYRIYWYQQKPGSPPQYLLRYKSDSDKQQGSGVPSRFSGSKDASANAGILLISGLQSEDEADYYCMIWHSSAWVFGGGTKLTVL
VH: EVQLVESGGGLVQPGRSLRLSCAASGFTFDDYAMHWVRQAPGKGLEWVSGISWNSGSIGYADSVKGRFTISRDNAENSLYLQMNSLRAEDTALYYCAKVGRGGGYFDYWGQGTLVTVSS

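Phage display of a naive human antibody library on the peptide gave the parent. The library (AAYL51) carries one to three amino acid substitutions per variant, with no insertions or deletions. In AlphaSeq, yeast of one mating type display the scFv and yeast of the other type display the target. Mating (16 h, 30 °C) was followed by selection of diploids and sequencing of their barcodes. A regression on co-assayed BCL2-family reference pairs converts the normalised counts of each replicate to an apparent Kd. The assay was run in three technical replicates.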

Substitutions are numbered in sequence along the VH above, starting at 1 (not Kabat). Values are log10 of the apparent Kd in nM; lower means stronger binding. A mean of the replicates is given; it leaves out those without a signal. "not detected" means that the variant was in the library but no mating with the target was seen in any replicate; the authors take this as a sign of poor binding, and no number exists. Empty control strains, which show no peptide, gave a signal in 21% of pairings with library AAYL51; the median was 4.54 and 95% of these signals were weaker than 3.26. No background was subtracted.

| # | mean log10 Kd (nM) | replicates with signal | changes |
|---|---|---|---|
| 1 | 5.25 | 1/3 | G26R+S52I+V99S |
| 2 | not detected | 0/3 | A33V+G50C+D62E |
| 3 | not detected | 0/3 | S52Q+R101W+D107N |
| 4 | 1.83 | 3/3 | D30T+F106G+Y108F |
| 5 | not detected | 0/3 | S55P+A61P+G103S |
| 6 | 2.41 | 3/3 | T28N+D62I+S63W |
| 7 | 3.90 | 3/3 | F29I+G56C |
| 8 | 4.67 | 2/3 | T28E+H35D+G104Y |
| 9 | not detected | 0/3 | N54P+S63Y+R101H |
| 10 | 5.00 | 2/3 | Y32T+N54Q+R101G |
| 11 | 2.50 | 3/3 | F29S+D31N+Y32K |
| 12 | not detected | 0/3 | G50A+S57M+D62W |
| 13 | 3.38 | 1/3 | F27G+H35Y+G103Y |
| 14 | not detected | 0/3 | H35E+D62F+Y108I |
| 15 | 4.44 | 1/3 | S55L+V64S+G104T |
| 16 | 4.77 | 2/3 | A33M+S55D+Y60G |
| 17 | 2.66 | 3/3 | T28P+D31I+K65D |
| 18 | 3.19 | 1/3 | T28L+Y32I+M34G |
| 19 | 4.84 | 1/3 | D31P+V99N+G103K |
| 20 | 3.71 | 3/3 | A61K+V99G+D107P |
| 21 | 4.06 | 2/3 | I51Y+A61Y |
| 22 | 1.81 | 3/3 | D31I+Y32A+M34H |
| 23 | 4.58 | 2/3 | W53E+V64L+R101E |
| 24 | 4.80 | 3/3 | T28I+I51T |
| 25 | 4.86 | 1/3 | D31M+N54T+A61Q |
| 26 | not detected | 0/3 | H35W+V64N+G102A |
| 27 | 3.68 | 1/3 | A33K+H35W+Y105W |
| 28 | not detected | 0/3 | A61Y+K65G+G103R |
| 29 | 3.93 | 1/3 | W53D+V99P+G100W |
| 30 | not detected | 0/3 | G26I+Y60G+S63T |
| 31 | 3.32 | 3/3 | G59E+V64M+V99S |
| 32 | 5.87 | 3/3 | M34T+G102C |
| 33 | 3.94 | 1/3 | F27Q+T28P+S55R |
| 34 | not detected | 0/3 | T28L+D30N+S63H |
| 35 | 2.45 | 2/3 | Y32N+S63H+R101Q |
| 36 | not detected | 0/3 | G50M+G56C+R101Y |
| 37 | not detected | 0/3 | N54V+K65H+G102I |
| 38 | not detected | 0/3 | G26L+D62F+G103D |
| 39 | not detected | 0/3 | D62C+G103F+Y105K |
| 40 | 4.93 | 1/3 | M34F+G59A+G100K |
| 41 | 4.82 | 3/3 | G26E+G103S+Y108E |
| 42 | not detected | 0/3 | G50C+G56I+Y108V |
| 43 | 4.36 | 2/3 | Y32M+G50K |
| 44 | 5.05 | 2/3 | M34S+Y105W+F106Q |
| 45 | not detected | 0/3 | F27S+D31R+Y32S |
| 46 | not detected | 0/3 | G50I+K65H+G103E |
| 47 | 3.89 | 1/3 | W53N+G56R+K65I |
| 48 | 4.56 | 1/3 | Y32T+V64A+V99P |
| 49 | 4.78 | 1/3 | G26S+M34N+D107A |
| 50 | not detected | 0/3 | M34G+G50N+G103M |
| 51 | not detected | 0/3 | S57Q+D62Y+S63L |
| 52 | 4.35 | 3/3 | G26N+A61D+K65E |
| 53 | 1.00 | 3/3 | A33G+S57L+R101H |
| 54 | not detected | 0/3 | I58L+S63E+Y108P |
| 55 | not detected | 0/3 | G26F+M34V+G100C |
| 56 | not detected | 0/3 | I51V+V64Q+V99C |
| 57 | not detected | 0/3 | D30G+G50T+F106D |
| 58 | 3.96 | 1/3 | F27G+Y32W+H35R |

The 6 strongest on average among those seen in every replicate, once more:

| changes | mean log10 Kd (nM) | replicates with signal |
|---|---|---|
| A33G+S57L+R101H | 1.00 | 3/3 |
| D31I+Y32A+M34H | 1.81 | 3/3 |
| D30T+F106G+Y108F | 1.83 | 3/3 |
| T28N+D62I+S63W | 2.41 | 3/3 |
| F29S+D31N+Y32K | 2.50 | 3/3 |
| T28P+D31I+K65D | 2.66 | 3/3 |